Measurements published in ChEMBL document CHEMBL3301361, “Experimental in vitro DMPK and physicochemical data on a set of publicly disclosed compounds”.
Values after ≈ are worked out from the molar mass of the structure shown.

Columns and labels:
in vitro [1] = details: SD, HW or BN, rat, plasma
in vitro [2] = details: human, plasma, PPB
in vitro [3] = details: Beagle, dog, plasma
in vitro [4] = details: mouse, plasma
in vitro [5] = details: human, hepatocytes
in vitro [6] = details: hepatocytes
physchem [7] = assay: physchem
in vitro [8] = details: Dunkin Hartley, guinea pig, plasma
physchem [9] = details: pH 7.4 buffer

Row | hepatocyte CLint (in vitro [5]) [µL/min/1e6 cells] | SMILES | also measured
1 | – | C[C@@H](CC(=O)OC(C)(C)C)NC(=O)C1=NO[C@@H](C(O)(C(F)(F)F)C(F)(F)F)C1 | fraction unbound at 5 h (in vitro [1]): 0.19; fraction unbound at 5 h (in vitro [2]): 0.179
2 | – | CCS(=O)(=O)c1ccc(-c2cc(C(F)(F)F)ccc2OCC(=O)O)c(Cl)c1 | fraction unbound at 5 h (in vitro [3]): 0.0224; fraction unbound at 5 h (in vitro [2]): 0.0234
3 | – | CC(C)(C)CS(=O)(=O)NCCN1CCN(CC(=O)NC23CC4CC(CC(C4)C2)C3)CC1 | fraction unbound at 5 h (in vitro [1]): 0.129; fraction unbound at 5 h (in vitro [2]): 0.139
4 | – | CN(C)CCN1CCN(c2cc(C(=O)NC[C@H]3CC[C@H](CNC(=O)OC(C)(C)C)CC3)c3ccccc3n2)CC1 | fraction unbound at 5 h (in vitro [1]): 0.0568; fraction unbound at 5 h (in vitro [2]): 0.0606
5 | – | CC(CC(=O)OC(C)(C)C)NC(=O)C1=NOC(C(O)(C(F)(F)F)C(F)(F)F)C1 (centres undefined) | fraction unbound at 5 h (in vitro [4]): 0.19; fraction unbound at 5 h (in vitro [2]): 0.194
6 | 3.24 | COc1cc2c(cc1-c1c(C)noc1C)ncc1[nH]c(=O)n([C@H](C)c3ccccn3)c12 | hepatocyte CLint (in vitro [6]): 3.39 µL/min/1e6 cells
7 | 27.5 | COc1cc(-c2cccc3c(=O)cc(N4CCOCC4)oc23)ccc1NC(=O)CN1CCOCC1 | –
8 | – | C[C@@H](CC(=O)OC(C)(C)C)NC(=O)C1=NOC(C(O)(C(F)(F)F)C(F)(F)F)C1 (some centres undefined) | fraction unbound at 5 h (in vitro [1]): 0.16; fraction unbound at 5 h (in vitro [2]): 0.16
9 | 32.4 | CCN(CC)Cc1cc(Nc2ccnc3cc(Cl)ccc23)ccc1O [AMODIAQUINE] | –
10 | < 3 | CCS(=O)(=O)Nc1cccc2c1c(Oc1ccc(Cl)cc1)c(C)n2CC(=O)O | hepatocyte CLint (in vitro [6]): < 3 µL/min/1e6 cells
11 | < 3 | Cc1nn(-c2ccc(F)cc2)c(NS(=O)(=O)c2ccc(C(F)(F)F)cc2)c1C(=O)N[C@@H](C)C(C)(C)C | –
12 | < 3 | CCCCNC(=O)c1ccc(Oc2ccc(CC(=O)O)cc2OC)c(NS(=O)(=O)c2ccc(Cl)cc2Cl)c1 | hepatocyte CLint (in vitro [6]): 3 µL/min/1e6 cells
13 | < 3 | C[C@H]1CN(Cc2cc(Cl)ccc2OCC(=O)O)CCN1S(=O)(=O)c1ccccc1 | hepatocyte CLint (in vitro [6]): < 3 µL/min/1e6 cells
14 | 38 | C#CC[C@@H](C(=O)N[C@H](/C=C/C(=O)OCC)C[C@@H]1CCNC1=O)n1cccc(NC(=O)c2cc(C)on2)c1=O [IMOCITRELVIR] | –
15 | 4.68 | CCOc1ncc(C)c2c1[C@H](c1ccc(C#N)cc1OC)C(C(N)=O)=C(C)N2 [FINERENONE] | pKa (physchem [7]): 4.68
16 | > 150 | O=C(O)CCc1ccc(OCc2cccc(Oc3ccccc3)c2)cc1 | –
17 | < 3 | Cc1ncc([N+](=O)[O-])n1CCO [METRONIDAZOLE] | hepatocyte CLint (in vitro [6]): < 3 µL/min/1e6 cells
18 | < 3 | Cc1c(OC2CCN(CC3CCN([C@@H](Cc4ccc(F)cc4)C(=O)O)CC3)CC2)ccc(C#N)c1Cl | hepatocyte CLint (in vitro [6]): < 3 µL/min/1e6 cells
19 | > 150 | CCC(=O)NC(c1cccs1)c1cc(Cl)c2cccnc2c1O (centres undefined) | hepatocyte CLint (in vitro [6]): > 150 µL/min/1e6 cells
20 | 4.79 | Cc1ccc(-c2cc(C(F)(F)F)nn2-c2ccc(CC(=O)O)cc2)cc1 | –
21 | – | C[C@@H]1CN(C(=O)N[C@H](Cc2ccc(F)cc2)C(=O)N2CCC(C(=O)NC(C)(C)C)(C3CCCCC3)CC2)C[C@H](C)N1 | fraction unbound at 5 h (in vitro [4]): 0.0752; fraction unbound at 5 h (in vitro [2]): 0.0768
22 | < 3 | Cc1nn(-c2ccccc2)c(NC(=O)NS(=O)(=O)c2ccc(Cl)cc2)c1C#N | –
23 | 27.3 | C[C@H](CO)Nc1nc(SCc2ccco2)nc2[nH]c(=O)sc12 | –
24 | – | O=c1[nH]c2c(O)ccc([C@@H](O)CNCCSCCCNCCc3ccccc3)c2s1 | fraction unbound at 5 h (in vitro [1]): 0.443; fraction unbound at 5 h (in vitro [8]): 0.471; fraction unbound at 5 h (in vitro [2]): 0.471

Row | hepatocyte CLint (in vitro [5]) [µL/min/1e6 cells] | SMILES | also measured
25 | – | c1ccc2nc(COc3ccc(-c4n[nH]cc4-c4ccncc4)cc3)ccc2c1 | fraction unbound at 5 h (in vitro [3]): 0.002; fraction unbound at 5 h (in vitro [2]): 0.002
26 | < 3 | COc1nc(C)nc(Cl)c1N=C1NCCN1 [MOXONIDINE] | –
27 | 102 | COc1ccc(C)c(Nc2ncc3ccn(-c4ccccn4)c3n2)c1 | –
28 | – | CCN(C(=O)c1ccc(-c2ccc(Cl)cc2)o1)c1ccc(N2CCNCC2)cc1 | fraction unbound at 5 h (in vitro [1]): 0.0428; fraction unbound at 5 h (in vitro [4]): 0.0391; fraction unbound at 5 h (in vitro [2]): 0.0418
29 | 29.5 | CCOc1cc(CC(=O)N[C@@H](CC(C)C)c2ccccc2N2CCCCC2)ccc1C(=O)O [REPAGLINIDE] | –
30 | 9.77 | CC(C(=O)O)c1ccc(C(=O)c2cccs2)cc1 (centres undefined) [SUPROFEN] | –
31 | – | CC(C)c1ccc(NC(=O)Cn2cnc3c2c(=O)n(C)c(=O)n3C)cc1 | fraction unbound at 5 h (in vitro [1]): 0.124; fraction unbound at 5 h (in vitro [2]): 0.126
32 | < 3 | CC(C)NC[C@@H](C(=O)N1CCN(c2ncnc3c2[C@H](C)C[C@H]3O)CC1)c1ccc(Cl)cc1 [IPATASERTIB] | –
33 | 42.5 | O=c1[nH]c2c(O)ccc(CCNCCS(=O)(=O)CCCOCCc3ccccc3)c2s1 [SIBENADET] | –
34 | – | CN1CCN(C2=Nc3cc(Cl)ccc3Nc3ccccc32)CC1 [CLOZAPINE] | pKa (physchem [7]): 7.64
35 | 25.1 | CCN(Cc1cc(C(F)(F)F)ccc1-c1cc(CC(=O)O)ccc1OC)C(=O)NCc1ccccc1 [AM-211] | –
36 | 6.92 | Cc1ccc(-c2ccc3c(ccc4sc5c(c43)NC[C@@H](C)NC5=O)n2)cn1 | –
37 | 5.25 | Cc1cc(OCCCS(C)(=O)=O)cc(C)c1-c1cccc(COc2ccc3c(c2)OC[C@H]3CC(=O)O)c1 | –
38 | 15.5 | C=CC(=O)Nc1ccc2ncnc(Nc3cccc(C)c3)c2c1 | –
39 | 8.51 | Cc1cnc(Nc2ccc(F)cc2Cl)nc1-c1c[nH]c(C(=O)N[C@H](CO)c2cccc(Cl)c2)c1 | –
40 | 60.3 | COc1ccc(CNC(=O)CSc2nc3cccnc3s2)cc1 | –
41 | 5.13 | C[C@H](c1nc2ncccc2c(=O)n1-c1ccc(Cl)cc1)N(CC1CCS(=O)(=O)CC1)C(=O)Cc1ccc(C(F)(F)F)c(F)c1 | –
42 | 21.4 | O=C(O)CCc1ccc(OCc2cc(Cl)ccc2-c2ccccc2)cc1 | –
43 | 95.5 | O=C(CN1CCOCC1)Nc1ccc(-c2cccc3c(=O)cc(N4CCOCC4)oc23)cc1OCC1CC1 | –
44 | – | CC(C)(C)NC(=O)NCCN1CCN(CC(=O)NC23CC4CC(CC(C4)C2)C3)CC1 | fraction unbound at 5 h (in vitro [1]): 0.309; fraction unbound at 5 h (in vitro [2]): 0.309
45 | – | CC(C)c1nnc2ccc(-c3ocnc3-c3cc(F)ccc3F)cn12 | solubility thermodynamic (physchem [9]): 186 µM (≈ 63.4 µg/mL); fraction unbound at 5 h (in vitro [2]): 0.186
46 | 14.5 | O=C(O)C[C@H](O)C[C@H](O)/C=C/c1c(C2CC2)nc2ccccc2c1-c1ccc(F)cc1 [PITAVASTATIN] | –
47 | < 3 | CCCNC(=O)CSc1ccc(S(=O)(=O)N2CCCC2)cn1 | –
48 | 26.4 | Cc1ccc(N2CC(COc3ccc(-c4noc(C)n4)cc3)C2)nn1 | –

Row | SMILES | hepatocyte CLint (in vitro [5]) [µL/min/1e6 cells] | also measured
49 | Cc1ccccc1-n1c(Cn2cnc3c(N)ncnc32)nc2cccc(C)c2c1=O | 11 | –
50 | NCCCCCc1c[nH]c2ccc(F)cc12 | 74.1 | –
51 | CC1CCC2C(C)C(=O)OC3OC4(C)CCC1C32OO4 (centres undefined) | 18.2 | –
